How the values were obtained:
[1] = tested on: Mycobacterium tuberculosis (H37RvMa); assay type: cell-based; conditions: versus compound 1
BCG_3827 (Rv3768) = assay type: binding, Mycobacterium bovis BCG
BCG_3193 (Rv3169) = BCG_3193 (Rv3169) (Mycobacterium bovis BCG, UniProt A0A1R3Y3B6); assay type: binding

The chains behind the UniProt entries cited, without tags or fusion partners. Residues count along the entry.
UniProt A0A1R3Y3B6, 1-374: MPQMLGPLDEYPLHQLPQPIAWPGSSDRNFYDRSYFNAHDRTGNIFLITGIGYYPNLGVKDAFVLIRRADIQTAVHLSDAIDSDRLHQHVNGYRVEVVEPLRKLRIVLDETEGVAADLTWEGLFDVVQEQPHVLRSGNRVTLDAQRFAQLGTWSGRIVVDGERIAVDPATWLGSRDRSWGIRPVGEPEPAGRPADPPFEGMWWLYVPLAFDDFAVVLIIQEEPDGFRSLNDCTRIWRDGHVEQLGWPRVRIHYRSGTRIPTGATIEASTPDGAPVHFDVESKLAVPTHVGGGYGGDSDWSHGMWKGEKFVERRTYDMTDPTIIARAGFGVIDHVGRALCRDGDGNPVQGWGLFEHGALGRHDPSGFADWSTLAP

Compound	fold more potent in 7H9/ADC compared to 1 ([1]; 7H9/ADC medium)	fold more potent in GAST/Fe compared to 1 ([1]; GAST/Fe medium)	relative abundance, compound competition 0.029 µM 40 (BCG_3827 (Rv3768))	relative abundance, compound competition 0.117 µM 40 (BCG_3827 (Rv3768))	relative abundance, compound competition 0.47 µM 40 (BCG_3827 (Rv3768))	relative abundance, compound competition 1.88 µM 40 (BCG_3827 (Rv3768))	relative abundance, compound competition 7.5 µM 40 (BCG_3827 (Rv3768))	relative abundance, compound competition 30 µM 40 (BCG_3827 (Rv3768))	relative abundance, compound competition 0.029 µM 40 (BCG_3193 (Rv3169))	relative abundance, compound competition 0.117 µM 40 (BCG_3193 (Rv3169))	relative abundance, compound competition 0.47 µM 40 (BCG_3193 (Rv3169))	relative abundance, compound competition 1.88 µM 40 (BCG_3193 (Rv3169))	relative abundance, compound competition 7.5 µM 40 (BCG_3193 (Rv3169))	relative abundance, compound competition 30 µM 40 (BCG_3193 (Rv3169))
CN(Cc1ccc(C(F)(F)F)cc1)c1cc(C(=O)Nc2ccccc2)ncn1 [Compound 12, 6-(Methyl(4-(trifluoromethyl)benzyl)amino)-N-phenylpyrimidine-4-carboxamide]	≥ 4 fold	≥ 2 fold	–	–	–	–	–	–	–	–	–	–	–	–
CN1CCN(c2ccc(NC(=O)c3cc(N(C)Cc4ccc(C(F)(F)F)cc4)ncn3)cc2)CC1 [Compound 40, 6-(Methyl(4-(trifluoromethyl)benzyl)amino)-N-(4-(4-methylpiperazin-1-yl)phenyl)pyrimidine-4-carboxamide]	–	–	0.93	1.08	0.95	0.86	0.71	0.35	0.92	1.15	0.76	0.30	0.12	0.074
